“Also recorded” adds a separate entry of the source.
Experiments:
[1] = system: HEK293T-RAMP1 cells without CLR; assay: cAMP generation, non-transfected or empty-vector HEK293T-RAMP1 cells; type: cell-based; conditions: 10 nM CGRP, 30 min, 37°C, data not shown
[2] = system: cerebral and coronary vessels; conditions: cited from earlier work
Source text: Conversely, vasodilatation by CGRP released in the peripheral vasculature might be of considerable importance to patients suffering from hypertension and/or heart di ...

[3] = system: wild type and L24A, L34A, L24A,L34A CLR-RAMP1 (HEK293T-RAMP1 cells); assay: cAMP generation, wild type and leucine mutant CLRs compared; conditions: L24A,L34A vs wild type CLR

In the case of `CC(C)C[C@H](NC(=O)CNC(=O)[C@H](C)NC(=O)[C@H](CC(C)C)NC(=O)[C@H](CCCNC(=N)N)NC(=O)[C@H](Cc1c[nH]cn1)NC(=O)[C@@H](NC(=O)[C@@H](NC(=O)[C@@H]1CSSC[C@H](NC(=O)[C@H](C)N)C(=O)N[C@@H](CC(=O)O)C(=O)N[C@@H]([C@@H](C)O)C(=O)N[C@@H](C)C(=O)N[C@@H]([C@@H](C)O)C(=O)N1)C(C)C)[C@@H](C)O)C(=O)N[C@@H](CC(C)C)C(=O)N[C@@H](CO)C(=O)N[C@@H](CCCNC(=N)N)C(=O)N[C@@H](CO)C(=O)NCC(=O)NCC(=O)N[C@H](C(=O)N[C@H](C(=O)N[C@@H](CCCCN)C(=O)N[C@@H](CC(N)=O)C(=O)N[C@@H](CC(N)=O)C(=O)N[C@@H](Cc1ccccc1)C(=O)N[C@H](C(=O)N1CCC[C@H]1C(=O)N[C@H](C(=O)N[C@@H](CC(N)=O)C(=O)N[C@H](C(=O)NCC(=O)N[C@@H](CO)C(=O)N[C@@H](CCCCN)C(=O)N[C@@H](C)C(=O)N[C@@H](Cc1ccccc1)C(N)=O)C(C)C)[C@@H](C)O)C(C)C)C(C)C)C(C)C` [CGRP, Calcitonin gene-related peptide], the “cAMP production without CLR” value [1] is given as “no production of cAMP”, the “vasodilation” value [2] is given as “potent, efficacious and long-lasting dilation” and the “cAMP potency at leucine mutants compared with wild type” value [3] is given as “not significantly different; also recorded: no different”.

— publication PMC1525162 (BMC Pharmacology, 2006)
